In the test the target is HiBit‐IL23R (UniProt Q5VWK5). Briefly: split reporter (BiFC, NanoBiT); complementary NanoBiT-tagged receptor constructs co-expressed in HEK293T cells; luminescence of living cells in HBSS with 1 mg/ml BSA after furimazine, plate reader; with or without 10 nM IL-23, with or without co-expressed untagged IL12Rβ1.

Amino acid sequences for entries named in this document (tags omitted). A change or cut given only in a name is not applied to a line headed by its entry.
UniProt Q5VWK5: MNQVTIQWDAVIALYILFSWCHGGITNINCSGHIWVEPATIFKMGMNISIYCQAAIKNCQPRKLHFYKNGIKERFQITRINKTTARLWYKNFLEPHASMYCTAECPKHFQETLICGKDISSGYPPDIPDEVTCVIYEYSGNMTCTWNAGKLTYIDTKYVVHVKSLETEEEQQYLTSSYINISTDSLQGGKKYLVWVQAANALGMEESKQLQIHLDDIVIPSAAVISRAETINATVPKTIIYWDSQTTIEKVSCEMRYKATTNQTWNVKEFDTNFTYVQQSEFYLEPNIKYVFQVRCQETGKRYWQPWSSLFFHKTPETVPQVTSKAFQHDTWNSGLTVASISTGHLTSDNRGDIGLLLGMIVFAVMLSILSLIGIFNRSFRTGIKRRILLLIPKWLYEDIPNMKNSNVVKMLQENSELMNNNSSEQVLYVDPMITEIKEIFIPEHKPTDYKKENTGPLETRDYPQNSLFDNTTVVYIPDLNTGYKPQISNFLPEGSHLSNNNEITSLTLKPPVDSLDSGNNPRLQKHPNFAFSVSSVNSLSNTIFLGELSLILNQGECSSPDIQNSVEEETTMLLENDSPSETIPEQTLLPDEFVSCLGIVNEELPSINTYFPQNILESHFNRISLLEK

“IL12Rβ1 (from UniProt P42701 24-662) (receptor)” yielded a fold reduction of the luminescence of HiBit-IL23R with LgBit-IL23R on co-expression of IL12Rβ1 of 6.73 fold.

Values taken from paper PMC10953408.
